# Target: rhuman cathepsin K (Homo sapiens, UniProt P43235)
# Protein sequences, listed by entry. Tags and fused reporters are not part of them. Residues count along the entry.
# UniProt P43235, 115-329 limits assumed: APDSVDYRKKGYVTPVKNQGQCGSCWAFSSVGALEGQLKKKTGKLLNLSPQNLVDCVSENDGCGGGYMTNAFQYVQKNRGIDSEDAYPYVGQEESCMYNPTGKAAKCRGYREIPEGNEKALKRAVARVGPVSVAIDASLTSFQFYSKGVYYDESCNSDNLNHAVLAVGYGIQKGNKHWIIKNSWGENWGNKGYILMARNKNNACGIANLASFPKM
# Experiment: Assay for identification of Cathepsin K inhibitors (QFRET, cleavage of Z-Phe-Arg-AMC)
# Details: 0.5 nM rhuman cathepsin K, Z-Phe-Arg-AMC substrate, 30 min pre-incubation, 1 h incubation at room temperature; mean of two separate occasions
row,SMILES,CatK FRET Mean pIC50
1,CS(=O)(=O)c1ccc2c3c([nH]c2c1)CCN(C(=O)[C@@H]1CCCC[C@H]1C(=O)NC1(C#N)CC1)C3,6.903
2,CS(=O)(=O)c1cccc2[nH]c3c(c12)CN(C(=O)[C@@H]1CCCC[C@H]1C(=O)NC1(C#N)CC1)CC3,7.141
